Results: article doi:10.1101/2022.10.10.511556 (bioRxiv, 2022)

Target: the molecule itself
Test: cryo-EM structure

B1: β-arrestin 1 (βarr1), full length rat (natural protein)
chain: MGDKGTRVFKKASPNGKLTVYLGKRDFVDHIDLVDPVDGVVLVDPEYLKERRVYVTLTCAFRYGREDLDVLGLTFRKDLFVANVQSFPPAPEDKKPLTRLQERLIKKLGEHAYPFTFEIPPNLPCSVTLQPGPEDTGKACGVDYEVKAFCAENLEEKIHKRNSVRLVIRKVQYAPERPGPQPTAETTRQFLMSDKPLHLEASLDKEIYYHGEPISVNVHVTNNTNKTVKKIKISVRQYADICLFNTAQYKCPVAMEEADDTVAPSSTFCKVYTLTPFLANNREKRGLALDGKLKHEDTNLASSTLLREGANREILGIIVSYKVKVKLVVSRGGLLGDLASSDVAVELPFTLMHPKPKEEPPHREVPESETPVDTNLIELDTNDDDIVFEDFARQRLKGMKDDKDEEDDGTGSPHLNNR
  stoichiometry N: 2
